In this test the test system is Escherichia coli.

For orientation: MIC means the lowest concentration that inhibits growth of the organism. Sequence GENTAMICIN came in with an MIC of 0.5 µg/mL.

Source of the values: ChEMBL document CHEMBL2375290, “Nonclassical antifolates, part 3: synthesis, biological evaluation and molecular modeling study of some new 2-heteroarylthio-quinazolin-4-ones” (Eur J Med Chem, 2013).
